Results published in ChEMBL document CHEMBL3351478, “New flavonol methyl ether from the leaves of Vitex peduncularis exhibits potential inhibitory activity against Leishmania donovani through activation of iNOS expression” (Eur J Med Chem, 2014).

Assays:
Leishmania donovani [1] = test: Antileishmanial activity against Leishmania donovani AG83 promastigotes assessed as parasite growth inhibition incubated for 92 hrs by MTT assay; format: functional, organism-based
Leishmania donovani [2] = conditions: THP-1, 10 to 210 uM

`COc1cc(O)c2c(=O)c(OC)c(-c3cc(O)c(O)c(OC)c3)oc2c1` was tested, and the inhibition (Leishmania donovani [1]) was “Dose-dependent effect” and the inhibition (Leishmania donovani [2]) was “Dose-dependent effect”.
